AlphaSeq binding of Ab-14 light chain variants to a spike HR2 peptide

The measurements come from Li et al. 2023 (doi:10.1038/s41467-023-39022-2) through the FLAb antibody collection.

Antigen: PDVDLGDISGINAS, a 14-residue peptide of the SARS-CoV-2 spike HR2 region.

Each scFv is VH, the linker GGGGSGGGGSGGGGS, VL, as in the parent Ab-14, and differs from it in the CDRs of the light chain only.
VH: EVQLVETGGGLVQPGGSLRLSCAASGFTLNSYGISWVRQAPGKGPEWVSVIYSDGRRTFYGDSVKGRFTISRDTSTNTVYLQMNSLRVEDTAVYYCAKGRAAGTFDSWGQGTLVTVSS
VL: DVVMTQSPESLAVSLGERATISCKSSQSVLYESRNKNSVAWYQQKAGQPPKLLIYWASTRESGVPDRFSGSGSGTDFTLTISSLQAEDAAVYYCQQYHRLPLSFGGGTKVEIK

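Phage display of a naive human antibody library on the peptide gave the parent. These sequences belong to a second round, designed from the earlier measurements on random variants of the parent. Their group label is 14L_Ctrl (Ctrl: baseline library sampled from a position-specific scoring matrix, with some repeated check sequences). Affinity was read by AlphaSeq, a pooled yeast mating assay with surface-displayed partners. After mating in shaken culture at 30 °C for 16 h, diploids were selected and their barcode pairs sequenced. Each replicate has its own calibration line, from reference interactions of the BCL2 family. Mating was done six times.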

The parent's light chain CDRs are KSSQSVLYESRNKNSVA, WASTRES, QQYHRLPLS; each variant's own CDRs replace them letter for letter.
Affinities are written as log10 Kd with Kd in nM; a lower number is a better binder.
Where no diploid with the target was found in that replicate, the entry reads "n.d.": below detection, most likely a poor binder, though not proof of it.
Of ten entries with the parent sequence, four were seen in most replicates (averages 0.34 to 2.37), three in one and three in none, so single entries are noisy.
The range of this assay differs from that of the first round, and the authors advise against merging the two.
The authors averaged sequences with at least three values out of six and counted those with two or fewer as poor binders.
As a blank, each scFv also met three strains without target: over all light chain designs, 4% of these pairings were detected, typically at 2.64 and seldom below 1.59. For each scFv, signals with the empty controls are counted beside the result, with their mean in brackets.

CDR-L1 | CDR-L2 | CDR-L3 | log10 Kd (nM) by replicate | signal with controls
KSSQSVLYESRNKNSVA | WASTCES | QQYHRQPLS | n.d. / n.d. / n.d. / n.d. / n.d. / n.d. | 0 of 18
KMSQSVLYESRNKNSVA | NASTRES | QQYHRLHGS | 0.42 / 0.28 / 0.56 / 0.28 / 0.19 / 0.29 | 2 of 18 (2.51)
KSQQHVSYESRNKNSVA | WASTRES | QQYHRLPLA | n.d. / n.d. / n.d. / n.d. / n.d. / n.d. | 0 of 18
KSSESVLYTSRNKNDVA | GASTRES | QQYHRTPLD | n.d. / n.d. / n.d. / n.d. / n.d. / 1.89 | 0 of 18
KLSQPVLYESRNKNSVA | WASTRES | QQYHRLPLS | 1.76 / 1.02 / 1.45 / 1.40 / 1.04 / 1.36 | 0 of 18
KSSQSVLYEHRDKNSVA | SASTRMD | QQYHRLPLS | 1.13 / n.d. / 0.07 / 0.18 / -0.35 / 0.56 | 0 of 18
KMSQSVLYTSRNKNSVA | HASTRFS | QQYERLPLS | 0.90 / 0.61 / 0.27 / 0.46 / 0.81 / 0.62 | 0 of 18
KSSTSVLYESRNKNSVA | WASTRVS | QQYHRLGLS | 3.48 / n.d. / n.d. / 1.87 / n.d. / n.d. | 0 of 18
KMSQTVLYEARNKNSVA | WASTRES | QQYHRLPLS | 1.70 / 1.40 / 1.00 / 1.74 / 1.36 / 1.27 | 1 of 18 (2.29)
YSSQSVLYESRNKNSVA | WASTREA | QQYHRLPLS | n.d. / 2.86 / n.d. / n.d. / n.d. / 1.45 | 0 of 18
KSTQSVLYESGNKNSVA | WASTRES | QQYHRLPLS | 0.76 / 1.94 / 1.05 / n.d. / 1.00 / 1.19 | 0 of 18
KSSQSVLYESRNKNSVA | HASTRES | QQYHRLPES | n.d. / n.d. / n.d. / n.d. / n.d. / n.d. | 3 of 18 (2.63)
KSSQSVLYERWNKNSVA | QHSARES | FQYHYLPLS | n.d. / n.d. / n.d. / n.d. / n.d. / n.d. | 0 of 18
KLSPSVLYESQEKNSVA | DASTREK | QQYHRLPLS | -0.22 / -0.21 / -0.35 / -0.21 / 0.19 / -0.01 | 0 of 18
KSSQSVLYESRNKNSVA | WASTRES | QQYHYMPLS | n.d. / n.d. / n.d. / n.d. / 3.29 / n.d. | 0 of 18
KSSQSVDMESRNLNSVA | WASTRES | QQYHRLPLS | n.d. / n.d. / n.d. / n.d. / n.d. / n.d. | 0 of 18
KISQSVLHESRNKNSVA | GASTRES | QQYHRLPLS | 0.60 / 0.88 / -0.11 / -0.06 / 0.29 / 0.90 | 0 of 18
KSSQSVDYEGREKNSVA | WASTRES | QQYHCLPLS | n.d. / n.d. / n.d. / n.d. / n.d. / n.d. | 0 of 18
KSSQSGLYESRNDNSVA | EASTRES | QAYHRLPLS | 1.60 / 1.06 / 1.42 / 0.93 / 1.66 / 1.52 | 0 of 18
KSSQSVLYESRWKNSVA | HASTRES | QQYHRLPLS | 1.62 / 1.79 / 1.79 / 1.61 / 1.92 / 2.74 | 0 of 18
KSSQSVLYESRNKNSVA | WASFRES | NQYFHLPLS | n.d. / n.d. / n.d. / n.d. / n.d. / n.d. | 1 of 18 (1.66)
KSSQSVRYESMNKNSVA | WASTRES | QQYCRLPLS | n.d. / n.d. / 3.42 / n.d. / 2.88 / n.d. | 0 of 18
RSSQSVMYESRNKNSVA | EASTRES | QQYHRLPLS | 0.79 / 0.49 / 0.56 / 0.16 / 0.32 / 0.72 | 0 of 18
KSSQSVDYETRNFNSVA | WASTRWD | QQYHRLPLS | 1.99 / 2.49 / 3.57 / 1.95 / 2.65 / 2.39 | 2 of 18 (2.46)
KSSQSVLYEDMLKNSVA | WASTRES | QQYHRLPLI | n.d. / n.d. / n.d. / n.d. / n.d. / n.d. | 0 of 18
KMSQGVLIESTNQNSVA | WASTRES | QQYHRLPLS | 1.25 / 1.21 / 1.50 / 1.42 / 1.85 / 1.48 | 0 of 18
KSSQSVLYESRNKNSVA | WASTRES | QQYTRLPLS | n.d. / n.d. / n.d. / 2.39 / n.d. / n.d. | 1 of 18 (0.78)
KSSQSVLYESWNKNSVA | YASTRES | LQYHRLPLS | n.d. / n.d. / n.d. / n.d. / n.d. / n.d. | 0 of 18
KSSQNVLYESRNKNSVA | WASTRES | QQYHRLPLS | n.d. / -0.18 / 0.50 / n.d. / n.d. / n.d. | 0 of 18
KQSQSVLYESRNKNSVA | WASTRES | QQYHRLPCW | n.d. / n.d. / 1.82 / n.d. / 1.25 / 2.49 | 0 of 18
KSSQSVLYESTEMNSVA | MASTHES | QQYHRLPLS | n.d. / n.d. / n.d. / n.d. / n.d. / n.d. | 0 of 18
KMSQSVLYESANKNSVA | WASTRFS | QQYHRLPLS | 1.14 / 0.94 / 0.74 / 1.78 / 1.29 / 1.56 | 1 of 18 (1.69)
KSSHSVLYESRNQNSHA | WASTRES | QQYHRLPLS | n.d. / n.d. / n.d. / n.d. / n.d. / n.d. | 0 of 18
YSSDSVLYEARNKNSVA | SASMRES | QQYHRLPLS | 2.27 / 1.78 / n.d. / 2.41 / 1.24 / 1.64 | 1 of 18 (1.74)
KSEQSVLNESRNKNSVA | WASTRES | EQYHRLPLS | n.d. / 3.21 / 1.80 / 1.69 / 2.00 / 2.00 | 0 of 18
KSSPSVLHESRRKNSVA | WASTRES | QQYHRLPLS | 1.80 / n.d. / n.d. / 1.68 / n.d. / n.d. | 1 of 18 (0.81)
KSDQSVLYESRNKNSVA | AADTRES | QQYHRLPLS | 0.46 / 0.39 / 0.22 / 0.31 / 0.40 / 0.52 | 5 of 18 (2.73)
VSSQSVYYESRNKNSVA | RASTREC | QQYHRLPLS | n.d. / n.d. / n.d. / n.d. / n.d. / n.d. | 0 of 18
KSSQSVPYESRNKNSVA | WASTRES | QSYHRLILS | n.d. / n.d. / n.d. / n.d. / n.d. / n.d. | 0 of 18
KVSQSELYHSRNKNSVA | WASTRES | QQYHRLPLS | 2.04 / 1.60 / 1.58 / 2.07 / 1.35 / 1.42 | 0 of 18
LWSQSVLYESRNKNSVA | WHSTRES | QQYHRLPLS | n.d. / n.d. / n.d. / n.d. / n.d. / n.d. | 0 of 18
KWSQSVLYESRNKNSVA | DASTRES | QQYHRLPLS | -0.12 / -0.30 / -0.38 / -0.38 / -0.32 / -0.28 | 0 of 18
KSSQSVLYESRNVNNVA | GASTRES | QQYHRLPLS | 0.46 / 0.29 / 0.16 / 0.15 / 0.30 / 0.20 | 0 of 18
KVPQSVLYESVNKHSVA | WASTRES | QQYHRLPLS | 1.41 / 1.45 / 1.54 / 1.30 / 1.87 / 1.57 | 1 of 18 (2.72)
KSSQSVLMESRNKNSVA | WASTRES | QQYINLPNS | n.d. / 2.17 / 0.62 / n.d. / n.d. / n.d. | 0 of 18
MDSQSVLHESMNKNSVA | WASTRES | QQYHRLPLS | n.d. / 2.43 / n.d. / n.d. / n.d. / n.d. | 1 of 18 (1.79)
KSSQSVLEMSLNDNSVA | WAMTRES | QQYHRLPLS | n.d. / n.d. / n.d. / n.d. / n.d. / n.d. | 0 of 18
KSSQSVLYESRNKNSVA | AASTRES | QQYHRLKLS | 0.58 / 1.01 / 0.46 / 0.52 / 1.17 / 0.43 | 0 of 18
KSSQSVLYESRNKNSVA | NASCRES | QQYHRLPLK | 0.90 / 1.91 / 1.58 / 2.20 / 0.97 / n.d. | 1 of 18 (1.74)
KSSQSVLYEERNKNSVA | MASTREL | QQYHRLPLS | n.d. / 1.80 / 3.07 / 2.46 / 1.57 / 1.21 | 1 of 18 (1.72)

Repeated from above, the 6 best binders with a signal in all replicates:

CDR-L1	CDR-L2	CDR-L3	log10 Kd (nM) by replicate	signal with controls
KWSQSVLYESRNKNSVA	DASTRES	QQYHRLPLS	-0.12 / -0.30 / -0.38 / -0.38 / -0.32 / -0.28	0 of 18
KLSPSVLYESQEKNSVA	DASTREK	QQYHRLPLS	-0.22 / -0.21 / -0.35 / -0.21 / 0.19 / -0.01	0 of 18
KSSQSVLYESRNVNNVA	GASTRES	QQYHRLPLS	0.46 / 0.29 / 0.16 / 0.15 / 0.30 / 0.20	0 of 18
KMSQSVLYESRNKNSVA	NASTRES	QQYHRLHGS	0.42 / 0.28 / 0.56 / 0.28 / 0.19 / 0.29	2 of 18 (2.51)
KSDQSVLYESRNKNSVA	AADTRES	QQYHRLPLS	0.46 / 0.39 / 0.22 / 0.31 / 0.40 / 0.52	5 of 18 (2.73)
KISQSVLHESRNKNSVA	GASTRES	QQYHRLPLS	0.60 / 0.88 / -0.11 / -0.06 / 0.29 / 0.90	0 of 18